## Ab-91 heavy chain CDR variants: yeast mating affinities

Source: Engelhart et al. 2022 (doi:10.1038/s41597-022-01779-4), MIT Lincoln Laboratory and A-Alpha Bio; data file from the FLAb repository.

Target: peptide PDVDLGDISGINAS, taken from heptad repeat 2 (HR2) of SARS-CoV-2 spike.

The variants keep the light chain, the linker and the frameworks of Ab-91 (scFv order VL, the linker GGGGSGGGGSGGGGS, VH).
VL: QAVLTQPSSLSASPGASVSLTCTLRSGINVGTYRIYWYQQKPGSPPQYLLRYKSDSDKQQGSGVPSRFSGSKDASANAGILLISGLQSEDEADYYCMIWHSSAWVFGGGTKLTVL
VH: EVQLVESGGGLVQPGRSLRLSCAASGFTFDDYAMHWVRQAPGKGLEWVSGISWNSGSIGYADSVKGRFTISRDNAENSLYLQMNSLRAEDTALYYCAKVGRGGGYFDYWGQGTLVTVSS

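Variants in AAYL51 differ from the parent at up to three CDR positions; double and triple changes were sampled at random. AlphaSeq pools MATa yeast showing the antibodies with MATalpha yeast showing the peptide. After mating in shaken culture at 30 °C for 16 h, diploids were selected and their barcode pairs sequenced. Read counts were normalised to the haploid input and turned into Kd by a linear fit to BCL2-family pairs of known affinity, for each replicate. There are three technical replicates.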

Substitutions are numbered in sequence along the VH above, starting at 1 (not Kabat). This list gathers variants with a substitution at S57 (VH, numbered from residue 1). Values are apparent Kd, the geometric mean of the replicates that gave a signal; lower means stronger binding. "nd" marks a missing value. The strain was present, yet no cells mated with the target were sequenced in any replicate, which points to weak or no binding.

| changes | Kd (apparent) | replicates with signal |
|---|---|---|
| W53N+S57H+G59D | nd | 0/3 |
| S57H+V99I | 16 µM | 2/3 |
| S57L+G103V+Y108E | nd | 0/3 |
| S57T+I58L+K65Y | 1.2 µM | 3/3 |
| Y32C+S55C+S57Y | 130 µM | 2/3 |
| S57D+I58D+F106W | nd | 0/3 |
| S57A+G59D+D107Y | 140 µM | 2/3 |
| S57V+Y105I | nd | 0/3 |
| D30G+S57Y+S63E | nd | 0/3 |
| F29T+S57N+K65W | nd | 0/3 |
| D31C+S57K+Y105W | 89 µM | 2/3 |
| F27E+W53D+S57H | 10 µM | 2/3 |
| W53Q+S57A+G104P | nd | 0/3 |
| F29W+S57T+G59K | 230 µM | 3/3 |
| N54V+S57I+Y105Q | 100 µM | 2/3 |
| S57H+A61Y+G103M | 68 µM | 1/3 |
| G50K+N54R+S57T | 9.8 µM | 2/3 |
| F29W+S57G | nd | 0/3 |
| A33S+S57F+G104V | 65 µM | 1/3 |
| D30W+S52I+S57W | 110 µM | 3/3 |
| F29Y+S57D+Y60I | 8.5 µM | 2/3 |
| S52C+S57W+G104K | nd | 0/3 |
| S57D | 410 nM | 3/3 |
| S52G+S57M | 42 nM | 3/3 |
| D30I+S57V+G102T | nd | 0/3 |
| S57C+I58N+G102D | nd | 0/3 |
| W53F+S57K+Y105W | nd | 0/3 |
| G26M+S52H+S57K | 37 µM | 2/3 |
| T28L+D31T+S57T | 19 µM | 3/3 |
| S57D+A61G+G103I | 270 nM | 3/3 |
| M34I+W53Y+S57M | 56 nM | 3/3 |
| G56F+S57K+F106L | nd | 0/3 |
| S57R+K65N+G104E | 13 µM | 3/3 |
| M34F+S55M+S57M | 4.7 µM | 1/3 |
| Y32I+S57I+K65F | 30 µM | 1/3 |
| M34Q+H35I+S57C | 110 µM | 2/3 |
| Y32E+S57W+G104L | 120 µM | 3/3 |
| D31V+S57T+G59M | 210 µM | 2/3 |
| S52T+S57I+G59I | nd | 0/3 |
| I51S+S57Q | nd | 0/3 |
| G26Q+M34G+S57L | 93 µM | 3/3 |
| M34N+S57C+G104F | nd | 0/3 |
| G26D+D30F+S57A | 35 µM | 1/3 |
| I51V+S57F+K65I | 42 µM | 3/3 |
| F29V+D31L+S57R | 300 nM | 1/3 |
| G50K+S57Q+K65A | 190 µM | 3/3 |
| D30W+S57W+I58H | nd | 0/3 |
| S57C+A61G+G100S | nd | 0/3 |
| S57Q+Y60R | nd | 0/3 |
| W53H+S57A+D62I | nd | 0/3 |
| F27S+D31N+S57P | 24 µM | 1/3 |
| A33G+S57R+K65C | 6.2 µM | 3/3 |
| S55G+S57F+G59Y | 580 µM | 3/3 |
| S57V+K65G+G100A | 4.9 µM | 3/3 |
| N54T+S57I+G103S | 31 µM | 2/3 |
| S57M+G59V+Y60C | nd | 0/3 |
| F29N+H35S+S57Q | 4.4 µM | 1/3 |
| S57C+Y105K+D107M | 24 µM | 1/3 |
| G50R+S57E+S63H | nd | 0/3 |
| S57H+G100A+F106E | 1.2 mM | 1/3 |
| S57Q+S63I+D107I | 69 nM | 3/3 |
| S57C+I58V | 56 nM | 3/3 |
| A33S+S57K+I58C | 81 nM | 3/3 |
| G50W+S57G+Y105P | 47 µM | 2/3 |

The last 7 entries again:

changes,Kd (apparent),replicates with signal
S57C+Y105K+D107M,24 µM,1/3
G50R+S57E+S63H,nd,0/3
S57H+G100A+F106E,1.2 mM,1/3
S57Q+S63I+D107I,69 nM,3/3
S57C+I58V,56 nM,3/3
A33S+S57K+I58C,81 nM,3/3
G50W+S57G+Y105P,47 µM,2/3

Background: pairings of library AAYL51 with three empty control strains gave a value in 21% of cases (median 34 µM, 5th percentile 1.8 µM). Values in that range, when seen in few replicates, are hard to tell from nonspecific mating. For reference, the parent read 72 nM as the reference entry and 7.5 nM as a member of this library.